{"sequences": {"note": "Sequences of proteins named here, by UniProt entry; tags and fusion partners are left off.", "UniProt P04049, whole entry Y340E/Y341E": "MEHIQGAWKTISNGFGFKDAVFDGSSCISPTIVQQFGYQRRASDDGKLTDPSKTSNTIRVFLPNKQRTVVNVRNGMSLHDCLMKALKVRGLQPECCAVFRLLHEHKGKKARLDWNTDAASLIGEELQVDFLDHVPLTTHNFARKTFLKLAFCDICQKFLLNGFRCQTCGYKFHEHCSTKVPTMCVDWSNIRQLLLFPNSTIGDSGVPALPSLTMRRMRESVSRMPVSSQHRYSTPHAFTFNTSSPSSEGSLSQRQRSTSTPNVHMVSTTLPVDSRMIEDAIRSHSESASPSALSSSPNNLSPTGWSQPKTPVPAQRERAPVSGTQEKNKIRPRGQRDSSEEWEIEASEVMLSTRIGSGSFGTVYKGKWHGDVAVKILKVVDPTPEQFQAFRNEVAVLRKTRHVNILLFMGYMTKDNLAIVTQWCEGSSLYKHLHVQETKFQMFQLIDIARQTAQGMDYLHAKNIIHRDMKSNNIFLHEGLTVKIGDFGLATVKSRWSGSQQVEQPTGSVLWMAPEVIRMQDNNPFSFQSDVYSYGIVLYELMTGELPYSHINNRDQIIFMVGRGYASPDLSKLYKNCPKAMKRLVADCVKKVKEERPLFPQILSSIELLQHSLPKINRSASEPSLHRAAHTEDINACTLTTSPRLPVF"}, "source": "patent US9242969B2", "about": "“Biaryl amide compounds as kinase inhibitors” (Novartis AG, priority 2013, dated 2016)", "data": [{"molecular_target": "C-Raf FL (full-length C-Raf with Y340E and Y341E activating mutations) (Homo sapiens (Human), UniProt P04049, Y340E/Y341E)", "format": "biochemical", "details": "not given", "units": {"IC50": "nM"}, "values": [{"smiles": "Cc1ccc(NC(=O)c2cccc(C(F)(F)F)c2)cc1-c1cc(N2CCOCC2)nc(-n2cc(C(C)(C)O)nn2)n1", "note": "[Example 37, N-(3-(2-(4-(2-hydroxypropan-2-yl)-1H-1,2,3-triazol-1-yl)-6-morpholinopyrimidin-4-yl)-4-methylphenyl)-3-(trifluoromethyl)benzamide]", "IC50": 0.198}]}, {"molecular_target": "C-Raf FL (full-length C-Raf with Y340E and Y341E activating mutations) (Homo sapiens (Human), UniProt P04049, Y340E/Y341E)", "format": "biochemical", "details": "full-length c-Raf 4 pM, ATP 3 uM, 10 nM biotinylated MEK1 kinase dead", "units": {"IC50": "nM"}, "values": [{"smiles": "Cc1ccc(C(=O)Nc2cccc(C(F)(F)F)c2)cc1-c1cc(N2CCOCC2=O)nc(N2CCOCC2)n1", "note": "[Example 4, 4-methyl-3-(2-morpholino-6-(3-oxomorpholino)pyrimidin-4-yl)-N-(3-(trifluoromethyl)phenyl)benzamide]", "IC50": 0.431}, {"smiles": "Cc1ncc(NC(=O)c2cccc(C(F)(F)F)c2)cc1-c1cc(N2CCOCC2=O)nc(N2CCOCC2)n1", "note": "[Example 5]", "IC50": 0.713}, {"smiles": "Cc1ccc(C(=O)Nc2cccc(C(F)(F)F)c2)cc1-c1nc(N2CCOCC2)cc(N2CCOCC2)n1", "note": "[Example 14, 3-(4,6-dimorpholinopyrimidin-2-yl)-4-methyl-N-(3-(trifluoromethyl)phenyl)benzamide]", "IC50": 0.616}, {"smiles": "Cc1ccc(NC(=O)c2cccc(C(C)(C)C#N)c2)cc1-c1cc(N2CCOCC2)nc(N2CCOCC2)n1", "note": "[Example 16, 3-(2-cyanopropan-2-yl)-N-(3-(2,6-dimorpholinopyrimidin-4-yl)-4-methylphenyl)benzamide]", "IC50": 0.299}, {"smiles": "Cc1ccc(NC(=O)c2cc(CN(C)C)cc(C(F)(F)F)c2)cc1-c1cc(N2CCOCC2)nc(N2CCOCC2)n1", "note": "[Example 20]", "IC50": 0.516}, {"smiles": "CCN1CCN(c2cc(C(=O)Nc3ccc(C)c(-c4cc(N5CCOCC5)nc(N5CCOCC5)n4)c3)cc(C(F)(F)F)c2)CC1", "note": "[Example 21, N-(3-(2,6-dimorpholinopyrimidin-4-yl)-4-methylphenyl)-3-(4-ethylpiperazin-1-yl)-5-(trifluoromethyl)benzamide]", "IC50": 0.905}, {"smiles": "Cc1ccc(NC(=O)c2cccc(OC(F)(F)F)c2)cc1-c1cc(N2CCOCC2)nc(N2CCOCC2)n1", "note": "[Example 22, N-(3-(2,6-dimorpholinopyrimidin-4-O-4-methylphenyl)-3-trifluoromethoxy)benzamide]", "IC50": 0.202}, {"smiles": "Cc1ccc(NC(=O)c2cccc(S(C)(=O)=O)c2)cc1-c1cc(N2CCOCC2)nc(N2CCOCC2)n1", "note": "[Example 23, N-(3-(2,6-dimorpholinopyrimidin-4-yl)-4-methylphenyl)-3-(methylsulfonyl)benzamide]", "IC50": 0.86}, {"smiles": "Cc1ccc(NC(=O)c2cc(C(C)(C)C)no2)cc1-c1cc(N2CCOCC2)nc(N2CCOCC2)n1", "note": "[Example 24, 3-(tert-butyl)-N-(3-(2,6-dimorpholinopyrimidin-4-yl)-4-methylphenyl)isoxazole-5-carboxamide]", "IC50": 0.328}, {"smiles": "Cc1ccc(NC(=O)c2cc(C(C)(C)C)on2)cc1-c1cc(N2CCOCC2)nc(N2CCOCC2)n1", "note": "[Example 25, 5-(tert-butyl)-N-(3-(2,6-dimorpholinopyrimidin-4-yl)-4-methylphenyl)isoxazole-3-carboxamide]", "IC50": 0.352}, {"smiles": "Cc1ccc(NC(=O)c2csc(C(F)(F)F)n2)cc1-c1cc(N2CCOCC2)nc(N2CCOCC2)n1", "note": "[Example 26, N-(3-(2,6-dimorpholinopyrimidin-4-yl)-4-methylphenyl)-2-(trifluoromethyl)thiazole-4-carboxamide]", "IC50": 0.514}, {"smiles": "Cc1ccc(NC(=O)c2cccc(C(F)(F)F)c2)cc1-c1cc(N2CCOCC2)nc(S(C)(=O)=O)n1", "note": "[Example 27, N-(4-methyl-3-(2-(methylsulfonyl)-6-morpholinopyrimidin-4-yl)phenyl)-3-(trifluoromethyl)benzamide]", "IC50": 0.11}, {"smiles": "CCNc1nc(-c2cc(NC(=O)c3cccc(C(F)(F)F)c3)ccc2C)cc(N2CCOCC2)n1", "note": "[Example 28, N-(3-(2-(ethylamino)-6-morpholinopyrimidin-4-yl)-4-methylphenyl)-3-(trifluoromethyl)benzamide]", "IC50": 0.214}, {"smiles": "Cc1ccc(NC(=O)c2cccc(C(F)(F)F)c2)cc1-c1cc(N2CCOCC2)nc(N2CC3(COC3)C2)n1", "note": "[Example 29, N-(4-methyl-3-(6-morpholino-2-(2-oxa-6-azaspiro[3.3]heptan-6-yl)pyrimidin-4-yl)phenyl)-3-(trifluoromethyl)benzamide]", "IC50": 0.421}, {"smiles": "CNc1nc(-c2cc(NC(=O)c3cccc(C(F)(F)F)c3)ccc2C)cc(N2CCOCC2)n1", "note": "[Example 30, N-(4-methyl-3-(2-(methylamino)-6-morpholinopyrimidin-4-yl)phenyl)-3-(trifluoromethyl)benzamide]", "IC50": 0.322}, {"smiles": "Cc1ccc(NC(=O)c2cccc(C(F)(F)F)c2)cc1-c1cc(N2CCOCC2)nc(NCCO)n1", "note": "[Example 31, N-(3-(2-((2-hydroxyethyl)amino)-6-morpholinopyrimidin-4-yl)-4-methylphenyl)-3-(trifluoromethyl)benzamide]", "IC50": 0.21}, {"smiles": "Cc1ccc(NC(=O)c2cccc(C(F)(F)F)c2)cc1-c1cc(N2CCOCC2)nc(N2CCC(O)C2)n1", "note": "(stereo not drawn) [Example 32, N-(3-(2-(3-hydroxypyrrolidin-1-yl)-6-morpholinopyrimidin-4-yl)-4-methylphenyl)-3-(trifluoromethyl)benzamide]", "IC50": 0.51}, {"smiles": "Cc1ccc(NC(=O)c2cccc(C(F)(F)F)c2)cc1-c1cc(N2CCOCC2)nc(-n2ccnc2)n1", "note": "[Example 33, N-(3-(2-(1H-imidazol-1-yl)-6-morpholinopyrimidin-4-yl)-4-methylphenyl)-3-(trifluoromethyl)benzamide]", "IC50": 0.134}, {"smiles": "Cc1ccc(NC(=O)c2cccc(C(F)(F)F)c2)cc1-c1cc(N2CCOCC2)nc(NS(C)(=O)=O)n1", "note": "[Example 35, N-(4-methyl-3-(2-(methylsulfonamido)-6-morpholinopyrimidin-4-yl)phenyl)-3-(trifluoromethyl)benzamide]", "IC50": 0.634}, {"smiles": "Cc1ccc(NC(=O)c2cccc(C(F)(F)F)c2)cc1-c1cc(N2CCOCC2)nc(N2CCCC2=O)n1", "note": "[Example 36, N-(4-methyl-3-(6-morpholino-2-(2-oxopyrrolidin-1-yl)pyrimidin-4-yl)phenyl)-3-(trifluoromethyl)benzamide]", "IC50": 0.456}, {"smiles": "Cc1ccc(NC(=O)c2cccc(C(F)(F)F)c2)cc1-c1cc(N2CCOCC2)nc(NC(CO)CO)n1", "note": "[Example 39, N-(3-(2-((1,3-dihydroxypropan-2-yl)amino)-6-morpholinopyrimidin-4-yl)-4-methylphenyl)-3-(trifluoromethyl)benzamide]", "IC50": 0.322}, {"smiles": "Cc1ccc(NC(=O)c2cccc(C(F)(F)F)c2)cc1-c1cc(N2CCOCC2)nc(OCCO)n1", "note": "[Example 40, N-(3-(2-(2-hydroxyethoxy)-6-morpholinopyrimidin-4-yl)-4-methylphenyl)-3-(trifluoromethyl)benzamide]", "IC50": 0.132}, {"smiles": "Cc1ccc(NC(=O)c2cccc(C(F)(F)F)c2)cc1-c1cc(N2CC3(COC3)C2)nc(N2CCOCC2)n1", "note": "[Example 47, N-(4-methyl-3-(2-morpholino-6-(2-oxa-6-azaspiro[3.3]heptan-6-yl)pyrimidin-4-yl)phenyl)-3-(trifluoromethyl)benzamide]", "IC50": 0.356}, {"smiles": "Cc1ccc(NC(=O)c2cccc(C(F)(F)F)c2)cc1-c1cc(N2CCOC[C@H]2CO)nc(N2CCOCC2)n1", "note": "[Example 48, (R)—N-(3-(6-(3-(hydroxymethyl)morpholino)-2-morpholinopyrimidin-4-yl)-4-methylphenyl)-3-(trifluoromethyl)benzamide]", "IC50": 0.347}, {"smiles": "Cc1ccc(NC(=O)c2cccc(C(F)(F)F)c2)cc1-c1cc(N2C3CCC2COC3)nc(N2CCOCC2)n1", "note": "[Example 49, N-(3-(6-(3-oxa-8-azabicyclo[3.2.1]octan-8-yl)-2-morpholinopyrimidin-4-yl)-4-methylphenyl)-3-(trifluoromethyl)benzamide]", "IC50": 0.376}, {"smiles": "Cc1ccc(NC(=O)c2cccc(C(F)(F)F)c2)cc1-c1cc(N2CCCOCC2)nc(N2CCOCC2)n1", "note": "[Example 50, N-(4-methyl-3-(2-morpholino-6-(1,4-oxazepan-4-yl)pyrimidin-4-yl)phenyl)-3-(trifluoromethyl)benzamide]", "IC50": 0.25}, {"smiles": "Cc1ccc(NC(=O)c2cccc(C(F)(F)F)c2)cc1-c1cc(N2CC3CC2CO3)nc(N2CCOCC2)n1", "note": "(stereo not drawn) [Example 51, N-(3-(6-(2-oxa-5-azabicyclo[2.2.1]heptan-5-yl)-2-morpholinopyrimidin-4-yl)-4-methylphenyl)-3-(trifluoromethyl)benzamide]", "IC50": 0.661}, {"smiles": "Cc1ccc(NC(=O)c2cccc(C(F)(F)F)c2)cc1-c1cc(N2CCO[C@H](C)C2)nc(N2CCOCC2)n1", "note": "[Example 53, (R)—N-(4-methyl-3-(6-(2-methylmorpholino)-2-morpholinopyrimidin-4-yl)phenyl)-3-(trifluoromethyl)benzamide]", "IC50": 0.651}, {"smiles": "Cc1ccc(NC(=O)c2cccc(C(F)(F)F)c2)cc1-c1cc(N2CCO[C@@H](C)C2)nc(N2CCOCC2)n1", "note": "[Example 54, (S)—N-(4-methyl-3-(6-(2-methylmorpholino)-2-morpholinopyrimidin-4-yl)phenyl)-3-(trifluoromethyl)benzamide]", "IC50": 0.625}, {"smiles": "Cc1ccc(NC(=O)c2cccc(C(F)(F)F)c2)cc1-c1cc(OC2CCOCC2)nc(N2CCOCC2)n1", "note": "[Example 56, N-(4-methyl-3-(2-morpholino-6-((tetrahydro-2H-pyran-4-yl)oxy)pyrimidin-4-yl)phenyl)-3-(trifluoromethyl)benzamide]", "IC50": 0.191}, {"smiles": "Cc1ccc(NC(=O)c2cccc(C(F)(F)F)c2)cc1-c1nc(N2CCOCC2)nc(N2CCOCC2)c1C", "note": "[Example 57, N-(4-methyl-3-(5-methyl-2,6-dimorpholinopyrimidin-4-yl)phenyl)-3-(trifluoromethyl)benzamide]", "IC50": 0.179}, {"smiles": "Cc1ncc(NC(=O)c2cccc(C(F)(F)F)c2)cc1-c1cnnc(N2CCOCC2)c1", "note": "[Example 58, N-(6-methyl-5-(6-morpholinopyridazin-4-yl)pyridin-3-yl)-3-(trifluoromethyl)benzamide]", "IC50": 1.03}, {"smiles": "Cc1ccc(NC(=O)c2cccc(C(F)(F)F)c2)cc1-c1cc(N2CCOCC2)cnn1", "note": "[Example 59, N-(4-methyl-3-(5-morpholinopyridazin-3-yl)phenyl)-3-(trifluoromethyl)benzamide]", "IC50": 0.432}, {"smiles": "Cc1ccc(NC(=O)c2cccc(C(F)(F)F)c2)cc1-c1cc(C(F)(F)F)nc(N2CCOCC2)n1", "note": "[Example 61]", "IC50": 0.314}, {"smiles": "Cc1ccc(NC(=O)c2cccc(C(F)(F)F)c2)cc1-c1ccnc(N2CCOCC2)c1", "note": "[Example 62, N-(4-methyl-3-(2-morpholinopyridin-4-yl)phenyl)-3-(trifluoromethyl)benzamide]", "IC50": 0.161}]}]}
